# In PubChem BioAssay (NCI):
#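 Briefly, cells in 96-well plates were exposed to five compound concentrations for 48 h, and endpoints were estimated by linear interpolation. GI50 marks 50% less growth. TGI: total growth inhibition.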
# Experiments:
# Assay in all cases: inhibition of tumour cell growth, NCI panel, 48 h
# MCF7 breast = system: MCF7 breast
# NCI-H226 lung = system: NCI-H226 lung
# NCI/ADR-RES ovarian = system: NCI/ADR-RES ovarian
# TK-10 renal = system: TK-10 renal
# IGROV1 ovarian = system: IGROV1 ovarian
# SK-MEL-28 melanoma = system: SK-MEL-28 melanoma
# HT29 colon = system: HT29 colon
# MOLT-4 leukemia = system: MOLT-4 leukemia
# HL-60(TB) leukemia = system: HL-60(TB) leukemia
# SK-MEL-5 melanoma = system: SK-MEL-5 melanoma
# HCT-15 colon = system: HCT-15 colon
# MALME-3M melanoma = system: MALME-3M melanoma
# M14 melanoma = system: M14 melanoma
# SF-268 CNS = system: SF-268 CNS
# K-562 leukemia = system: K-562 leukemia
# NCI-H522 lung = system: NCI-H522 lung
# OVCAR-5 ovarian = system: OVCAR-5 ovarian
# SF-539 CNS = system: SF-539 CNS
# UO-31 renal = system: UO-31 renal
# A498 renal = system: A498 renal
# HS 578T breast = system: HS 578T breast
# SN12C renal = system: SN12C renal
# NCI-H23 lung = system: NCI-H23 lung
# U251 CNS = system: U251 CNS
# SK-MEL-2 melanoma = system: SK-MEL-2 melanoma
# 786-0 renal = system: 786-0 renal
# OVCAR-4 ovarian = system: OVCAR-4 ovarian
# KM12 colon = system: KM12 colon
# SW-620 colon = system: SW-620 colon
# COLO 205 colon = system: COLO 205 colon
# HCC-2998 colon = system: HCC-2998 colon
# SR leukemia = system: SR leukemia
# SNB-19 CNS = system: SNB-19 CNS
# PC-3 prostate = system: PC-3 prostate
# CAKI-1 renal = system: CAKI-1 renal
# LOX IMVI melanoma = system: LOX IMVI melanoma
# UACC-257 melanoma = system: UACC-257 melanoma
# T-47D breast = system: T-47D breast
# NCI-H322M lung = system: NCI-H322M lung
# MDA-MB-231 breast = system: MDA-MB-231 breast
# OVCAR-3 ovarian = system: OVCAR-3 ovarian
# DU-145 prostate = system: DU-145 prostate
# NCI-H460 lung = system: NCI-H460 lung
# EKVX NSCLC = system: EKVX NSCLC
# UACC-62 melanoma = system: UACC-62 melanoma
# ACHN renal = system: ACHN renal
# A549 NSCLC = system: A549 NSCLC
# SK-OV-3 ovarian = system: SK-OV-3 ovarian
# RPMI-8226 leukemia = system: RPMI-8226 leukemia
# HOP-62 NSCLC = system: HOP-62 NSCLC
# OVCAR-8 ovarian = system: OVCAR-8 ovarian
# HCT-116 colon = system: HCT-116 colon
smiles,measurement,setting,value
Cc1ccc(S(=O)(=O)n2cc([C@@]3(O)C[C@H](CC#N)OC3=O)c3ccccc32)cc1,GI50,MCF7 breast,274 nM
same,TGI,MCF7 breast,32.3 µM
same,GI50,NCI-H226 lung,966 nM
same,TGI,NCI-H226 lung,13.9 µM
same,GI50,NCI/ADR-RES ovarian,1420 nM
same,TGI,NCI/ADR-RES ovarian,> 100 µM
same,GI50,TK-10 renal,1240 nM
same,TGI,TK-10 renal,6.78 µM
same,GI50,IGROV1 ovarian,3.09 µM
same,TGI,IGROV1 ovarian,> 100 µM
same,GI50,SK-MEL-28 melanoma,13.7 µM
same,TGI,SK-MEL-28 melanoma,> 100 µM
same,GI50,HT29 colon,504 nM
same,TGI,HT29 colon,> 100 µM
same,GI50,MOLT-4 leukemia,2550 nM
same,TGI,MOLT-4 leukemia,85.8 µM
same,GI50,HL-60(TB) leukemia,3.22 µM
same,TGI,HL-60(TB) leukemia,> 100 µM
same,GI50,SK-MEL-5 melanoma,259 nM
same,TGI,SK-MEL-5 melanoma,12.8 µM
same,GI50,HCT-15 colon,1530 nM
same,TGI,HCT-15 colon,> 100 µM
same,GI50,MALME-3M melanoma,357 nM
same,TGI,MALME-3M melanoma,29.3 µM
same,GI50,M14 melanoma,449 nM
same,TGI,M14 melanoma,> 100 µM
same,GI50,SF-268 CNS,1510 nM
same,TGI,SF-268 CNS,59.9 µM
same,GI50,K-562 leukemia,1250 nM
same,TGI,K-562 leukemia,> 100 µM
same,GI50,NCI-H522 lung,3.18 µM
same,TGI,NCI-H522 lung,> 100 µM
same,GI50,OVCAR-5 ovarian,3.79 µM
same,TGI,OVCAR-5 ovarian,> 100 µM
same,GI50,SF-539 CNS,352 nM
same,TGI,SF-539 CNS,2250 nM
same,GI50,UO-31 renal,27.6 µM
same,TGI,UO-31 renal,> 100 µM
same,GI50,A498 renal,3.29 µM
same,TGI,A498 renal,10.7 µM
same,GI50,HS 578T breast,1860 nM
same,TGI,HS 578T breast,26.2 µM
same,GI50,SN12C renal,1170 nM
same,TGI,SN12C renal,69.3 µM
same,GI50,NCI-H23 lung,3.5 µM
same,TGI,NCI-H23 lung,> 100 µM
same,GI50,U251 CNS,1120 nM
same,TGI,U251 CNS,> 100 µM
same,GI50,SK-MEL-2 melanoma,5.34 µM
same,TGI,SK-MEL-2 melanoma,> 100 µM
same,GI50,786-0 renal,3.79 µM
same,TGI,786-0 renal,> 100 µM
same,GI50,OVCAR-4 ovarian,11.9 µM
same,TGI,OVCAR-4 ovarian,> 100 µM
same,GI50,KM12 colon,805 nM
same,TGI,KM12 colon,> 100 µM
same,GI50,SW-620 colon,475 nM
same,TGI,SW-620 colon,> 100 µM
same,GI50,COLO 205 colon,1730 nM
same,TGI,COLO 205 colon,4.22 µM
same,GI50,HCC-2998 colon,2180 nM
same,TGI,HCC-2998 colon,9.15 µM
same,GI50,SR leukemia,4.52 µM
same,TGI,SR leukemia,9.32 µM
same,GI50,SNB-19 CNS,11.8 µM
same,TGI,SNB-19 CNS,> 100 µM
same,GI50,PC-3 prostate,1170 nM
same,TGI,PC-3 prostate,> 100 µM
same,GI50,CAKI-1 renal,1120 nM
same,TGI,CAKI-1 renal,23.1 µM
same,GI50,LOX IMVI melanoma,511 nM
same,TGI,LOX IMVI melanoma,> 100 µM
same,GI50,UACC-257 melanoma,929 nM
same,TGI,UACC-257 melanoma,26 µM
same,GI50,T-47D breast,> 100 µM
same,TGI,T-47D breast,> 100 µM
same,GI50,NCI-H322M lung,3.14 µM
same,TGI,NCI-H322M lung,28.1 µM
same,GI50,MDA-MB-231 breast,1880 nM
same,TGI,MDA-MB-231 breast,> 100 µM
same,GI50,OVCAR-3 ovarian,1230 nM
same,TGI,OVCAR-3 ovarian,5.58 µM
same,GI50,DU-145 prostate,2100 nM
same,TGI,DU-145 prostate,4.62 µM
same,GI50,NCI-H460 lung,2520 nM
same,TGI,NCI-H460 lung,21.6 µM
same,GI50,EKVX NSCLC,4.11 µM
same,TGI,EKVX NSCLC,> 100 µM
same,GI50,UACC-62 melanoma,764 nM
same,TGI,UACC-62 melanoma,40.4 µM
same,GI50,ACHN renal,1560 nM
same,TGI,ACHN renal,75.5 µM
same,GI50,A549 NSCLC,3.49 µM
same,TGI,A549 NSCLC,61.8 µM
same,GI50,SK-OV-3 ovarian,2260 nM
same,TGI,SK-OV-3 ovarian,> 100 µM
same,GI50,RPMI-8226 leukemia,332 nM
same,TGI,RPMI-8226 leukemia,3.33 µM
same,GI50,HOP-62 NSCLC,4.36 µM
same,TGI,HOP-62 NSCLC,> 100 µM
same,GI50,OVCAR-8 ovarian,2520 nM
same,TGI,OVCAR-8 ovarian,11.6 µM
same,GI50,HCT-116 colon,9.2 µM
same,TGI,HCT-116 colon,30.7 µM
